From patent publication US6841567B1, “Cyclic substituted fused pyrrolocarbazoles and isoindolones” (Cephalon, Inc., priority 1999, dated 2005) come the findings set out here.

The chains behind the UniProt entries cited, without tags or fusion partners. Residues count along the entry.
UniProt P35968, 834-1162 limits assumed: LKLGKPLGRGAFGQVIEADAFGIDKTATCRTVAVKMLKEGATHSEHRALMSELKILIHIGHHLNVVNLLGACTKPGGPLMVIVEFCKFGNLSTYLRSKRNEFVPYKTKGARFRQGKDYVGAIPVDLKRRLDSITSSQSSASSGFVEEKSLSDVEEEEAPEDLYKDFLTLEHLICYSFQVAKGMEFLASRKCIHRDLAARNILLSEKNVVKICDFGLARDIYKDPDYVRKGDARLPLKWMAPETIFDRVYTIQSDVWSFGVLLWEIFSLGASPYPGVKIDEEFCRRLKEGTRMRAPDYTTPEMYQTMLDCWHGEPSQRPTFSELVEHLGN
UniProt P04629, 440-796 limits assumed: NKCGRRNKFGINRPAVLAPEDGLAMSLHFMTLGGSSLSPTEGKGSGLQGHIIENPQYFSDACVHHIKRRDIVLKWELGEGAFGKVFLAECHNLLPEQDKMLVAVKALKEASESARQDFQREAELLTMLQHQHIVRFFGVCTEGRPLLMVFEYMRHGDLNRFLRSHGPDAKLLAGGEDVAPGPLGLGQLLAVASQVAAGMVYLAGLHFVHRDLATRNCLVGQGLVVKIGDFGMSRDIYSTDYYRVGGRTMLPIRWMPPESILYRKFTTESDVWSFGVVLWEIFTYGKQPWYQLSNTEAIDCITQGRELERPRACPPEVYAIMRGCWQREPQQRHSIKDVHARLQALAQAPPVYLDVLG

Assay [1] concerns the target VEGF receptor (human flk-1, KDR, VEGFR2) kinase domain (Homo sapiens, UniProt P35968). The assay can be described thus: Inhibition of vascular endothelial growth factor receptor kinase activity (ELISA). The settings on record: read-out: VEGF receptor kinase activity IC50; 40 μM ATP. The protocol:
Cyclic substituted fused pyrrolocarbazole and isoindolone compounds were examined for their inhibitory effects on the kinase activity of baculovirus-expressed VEGF receptor (human flk-1, KDR, VEGFR2) kinase domain using the procedure described for the trkA kinase ELISA assay described above. The kinase reaction mixture, consisting of 50 mM Hepes, pH 7.4, 40 μM ATP, 10 mM MnCl2, 0.1% BSA, 2% DMSO, and various concentrations of inhibitor, was transferred to PLC-γ/GST-coated plates. VEGFR kinase was added and the reaction was allowed to proceed for 15 min. at 37 C. Detection of phosphorylated product was accomplished by addition of antII-phosphotyrosine antibody (UBI). A secondary enzymeconjugated antibody was delivered to capture the antibody-phosphorylated PLC-γ/GST complex. The activity of the bound enzyme was measured via an amplified detection system (Gibco-BRL). Inhibition data were analyzed using the sigmoidal dose-response (variable slope) equation in GraphPad Prism.

Assay [2] deals with baculovirus-expressed human trkA cytoplasmic domain (Homo sapiens, UniProt P04629). The assay can be described thus: Inhibition of trkA tyrosine kinase activity (ELISA-based assay). The settings on record: read-out: trkA kinase activity IC50; 40 μM ATP. The protocol: Selected cyclic substituted fused pyrrolocarbazole and isoindolone compounds were tested for their ability to inhibit the kinase activity of baculovirus-expressed human trkA cytoplasmic domain using an ELISA-based assay as previously described (Angeles et al., Anal. Biochem. 236: 49-55, 1996). Briefly, the 96-well microtiter plate was coated with substrate solution (recombinant human phospholipase C-γ1/glutathione S-transferase fusion protein (Rotin et al., EMBO J., 11: 559-567, 1992). Inhibition studies were performed in 100 μl assay mixtures containing 50 mM Hepes, pH 7.4, 40 μM ATP, 10 mM MnCl2, 0.1% BSA, 2% DMSO, and various concentrations of inhibitor. The reaction was initiated by addition of trkA kinase and allowed to proceed for 15 minutes at 37° C. An antibody to phosphotyrosine (UBI) was then added, followed by a secondary enzyme-conjugated antibody, alkaline phosphatase-labelled goat antII-mouse IgG (Bio-Rad). The activity of the bound enzyme was measured via an amplified detection system (Gibco-BRL). Inhibition data were analyzed using the sigimoidal dose-response (variable slope) equation in GraphPad Prism.

As to `CCOC(=O)C1C(=O)CCC1C1c2ccccc2-c2c3c(c4c([nH]c5ccccc54)c21)CNC3=O` (centres unmarked), the figures for the IC50 in assay [1] and in assay [2] were 1880 nM and 315 nM, respectively.
